Laboratory results from article PMC10771525 (Communications Biology, 2024).

How the values were obtained:
Assay type in all cases: cell-based, human
Settings in all cases: reference agonist
FSHR = assay: GPCR panel (control), Arrestin, CHO-K1
TSHR = assay: GPCR panel (control), Arrestin, U2OS
LHCGR = assay: GPCR panel (control), Arrestin, CHO-K1

pEC50 (FSHR): 8.41
Substance: FSH
EC80 (FSHR): 210 nM

pEC50 (TSHR): 7.06
Substance: Human TSH
EC80 (TSHR): 3500 nM

pEC50 (LHCGR): 8.17
Substance: Chorionic Gonadotropin (hCG)
EC80 (LHCGR): 45 nM

pEC50: −log10 of the molar value. Each block holds one substance with its values, some of them ahead of it.
